# Bioassay records deposited in PubChem by National Center for Advancing Translational Sciences (NCATS).
# Hits are enriched below; roughly 16% of the tested compounds scored in any of these assays.
# DT40 TDP1 CPT = DT40-hTDP1 cell growth loss with CPT | Potency, µM (highest dose often 46.2 µM), actives largely listed as inhibitors | AID 686979 | 420,000 tested, 12% active | chicken DT40 Tdp1-/-;hTDP1 cells + 20 nM CPT, ATP luminescence, 48 h; note: nearly all actives have a fitted effect of over 55% in size
#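 Chicken DT40 Tdp1-/- cells stably complemented with human TDP1 were seeded at 400 cells/well in medium containing 20 nM camptothecin, exposed to pin-transferred compounds, and grown at 37 °C for at least 48 hr. Viability was read as ATP luminescence.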
# uPA generation = blocks generation of uPA at the cell surface. cell surface uPA generation assay, qHTS. Potency, µM (doses to about 38.3 µM), hits mostly inhibitors. 330,000 tested, 0.31% active. AID 540303; active = well fitted inhibition curve with a large enough effect; inconclusive = small, poorly fitted or top-dose-only effect; inactive = no such curve, though single readings can be large or run the other way; tested in mouse RAW 264.7 cells; note: nearly all actives have a fitted effect of over 55% in size
# DT40 TDP1 no CPT = qHTS for Inhibitors of human tyrosyl-DNA phosphodiesterase 1 (TDP1): qHTS in cells in absence of CPT; DT40 Tdp1-/- hTDP1 cells, no CPT, ATP luminescence, 48 h; Potency, µM (series often up to 46.2 µM), usual class: inhibitors; 420,000 tested, 15% active; AID 686978, 2013; note: nearly all actives have a fitted effect of over 55% in size
#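 DT40 Tdp1-/-;hTDP1 cells, no CPT (DMSO vehicle only), 400 cells/well; compounds pin-transferred; ≥48 hr, 37 °C; CellTiter-Glo 30 min RT dark, luminescence read.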
# miR-21 reporter = miR-21 reporter, rising signal; HeLa miR-21 FLuc reporter, luciferase, 48 h; Potency, µM (doses to about 38.3 µM); 340,000 tested, under 10 active; AID 2288; active = well fitted rising curve with a large enough effect; inconclusive = small, poorly fitted or top-dose-only effect; inactive = no such curve, though single readings can be large or run the other way;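 further: miR-21 action dims this reporter so a rising signal means less miR-21 action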
#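 HeLa miR-21-FLuc reporter line, endogenous miR-21; 2000 cells/well in DMEM/10% FBS; compound titration up to ~40uM final, 48 h, 37 degree Celsius; luciferase detection reagent, 15 min lysis, CCD luminescence.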
# TDP1 inh = inhibitors of human tyrosyl-DNA phosphodiesterase TDP1; recombinant TDP1, AlphaScreen DNA substrate cleavage; Potency, µM (highest dose often 130 µM), most hits filed as inhibitors; 350,000 tested, 0.28% active; AID 485290; note: nearly all actives have a fitted effect of over 40% in size
#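 Recombinant human Tdp1 (E. coli-expressed, 1 nM final) preincubated with compounds 15 min at room temperature, then 5'-biotin/3'-phosphotyrosine-FITC DNA substrate (15 nM final) added for 5 min. AlphaScreen beads (10 ug/ml final) added 10 min; cleavage lowers signal.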
# Numbers stand for hits; i = inactive; ? = inconclusive; nt = no result. Unless noted, calls come from the whole dose curve; as a rule, active = well fitted curve in the direction sought with a large enough effect; inconclusive = small, poorly fitted or top-dose-only effect, or another doubt; inactive = no such curve, though single readings can be large; an effect the other way counts as inactive or inconclusive.
SMILES,DT40 TDP1 CPT,uPA generation,DT40 TDP1 no CPT,miR-21 reporter,TDP1 inh
CC1=CC2=NC(=O)CC(C)(C(=O)N(CC(=O)NC(C)(C)C)Cc3cccs3)N2C=C1 (stereo not drawn),i,i,i,i,i
Cc1ccccc1-n1nnnc1SC(C)C(=O)Nc1ccc(N2CCN(C)CC2)cc1 (stereo not drawn),?,i,?,i,nt
COc1ccc(CNC(=O)COC(=O)c2ccc(S(=O)(=O)NCc3ccco3)cc2)cc1,i,i,i,nt,18µM
Cc1noc(C)c1COC(=O)c1ccc(S(=O)(=O)NCc2ccco2)cc1,16µM,i,?,i,i
O=C(COC(=O)c1ccc(S(=O)(=O)NCc2ccco2)cc1)NCc1ccc(F)cc1,i,i,i,nt,i
CCCNC(=O)C1(C)CCCN(C(=O)c2cc3ccccc3s2)C1 (stereo not drawn),i,nt,i,nt,nt
CCN1/C(=C/c2ccc3cc(C)ccc3[n+]2CC)Sc2ccccc21,0.065µM,?,0.058µM,?,i
CC[n+]1c(/C=C2\Sc3ccccc3N2C)ccc2cccc(C)c21,0.52µM,nt,0.52µM,?,i
O=C(c1cc(S(=O)(=O)Nc2ccccc2F)c(Cl)cc1Cl)N1CCN(CCO)CC1,i,i,i,i,i
CCOC(=O)c1c(C)c(C)n(Cc2ccc(OC)c(OC)c2)c1C,21µM,i,18µM,i,i
CCOC(=O)c1cc(C)n(Cc2ccc(OCC)c(OC)c2)c1C,11µM,nt,?,i,i
CCOC(=O)c1c(S(=O)(=O)NCCc2ccc(OC)c(OC)c2)c(C)n(C)c1C,i,i,i,i,i
COc1ccc([C@H]2C[C@@H](O)C[C@@H](CCn3cc(-c4ccccc4)nn3)O2)cc1,i,nt,i,nt,nt
CCC(=O)N1c2ccccc2CC1C(=O)NCCc1ccc(OC)cc1OC (stereo not drawn),?,nt,?,i,i
COc1ccc(CCN2C(=O)CS/C2=N\NC(=O)c2ccc(C(C)(C)C)cc2)cc1OC,?,i,15µM,i,i
COc1ccc(N=C2SCC(=O)N2CCc2ccc(OC)c(OC)c2)cc1,?,i,26µM,i,nt
COc1ccc(CCN2C(=O)CSC2=Nc2ccc(C(C)C)cc2)cc1OC,15µM,i,9.2µM,?,i
CC1(C)COC(=S)N1CCC#N,i,i,i,nt,nt
O=C(Cc1ccccc1)N1CCN(c2ncccn2)CC1,i,i,i,i,i
CSc1oc(-c2ccco2)nc1S(=O)(=O)c1ccc(F)cc1,i,i,?,i,i
COC(=O)C[C@H]1CC[C@@H](NS(=O)(=O)c2ccc(C)cc2)[C@@H](CO)O1,i,nt,i,nt,nt
Cc1csc2nc(-c3cccc(NS(C)(=O)=O)c3)cn12,i,nt,i,i,i
CC(=O)Nc1cc(-c2cccc(NS(C)(=O)=O)c2)cn2c(-c3cccc(C(F)(F)F)c3)cnc12,18µM,nt,18µM,nt,nt
COc1cccc(-c2cnc3c(NC(C)=O)cc(-c4ccsc4)cn23)c1,13µM,nt,15µM,nt,nt
COc1cccc(-c2c(NC(C)=O)n(C)c3ccccc3c2=O)c1,i,i,i,i,nt
SMILES,DT40 TDP1 CPT,uPA generation,DT40 TDP1 no CPT,miR-21 reporter,TDP1 inh
COc1cccc(-c2cnc3c(NC(C)=O)cc(-c4ccc(OC)c(OC)c4)cn23)c1,10µM,nt,15µM,nt,nt
COc1ccc(-c2cc(NC(C)=O)c3ncc(-c4cccc(C(C)=O)c4)n3c2)cc1OC,21µM,nt,21µM,nt,nt
CC(C)NS(=O)(=O)c1ccc(CCC(=O)NCc2ccccn2)cc1,i,i,i,i,nt
CCOc1ccc(NC(=O)Cn2c(=O)c(CNc3ccccc3)cc3cc4c(cc32)OCCO4)cc1,nt,nt,nt,i,i
CCN(C(=O)COC(=O)COc1ccc(Cl)c(C)c1)C1CCS(=O)(=O)C1 (stereo not drawn),i,i,i,nt,i
CCN(CC)C(=O)Cc1c(O)c2ccccc2[nH]c1=O,i,i,i,i,i
N#C/C(=C/c1cn(CC(=O)O)c2ccccc12)c1ccc(F)cc1,i,i,i,i,i
COc1cccc(NC(=O)CN(C)C(=O)Cc2cccc3ccccc23)c1,i,i,i,nt,i
COc1cccc(-c2cc(C(=O)Nc3ccc(OC)c(OC)c3)no2)c1,i,nt,i,i,i
COc1cccc(-c2cc(NC(C)=O)c3ncc(-c4ccc(OC)c(OC)c4)n3c2)c1,?,nt,21µM,nt,nt
